Substrate in data set [1]: C[C@@H](O)[C@H]1C(=O)N2C(C(=O)O)=C(SCCNC=N)C[C@H]12
Particulars: Shouchella clausii; NR.

Substrate in data set [2]: C[C@@H](O)[C@H]1C(=O)N2C(C(=O)O)=C(SCCNC=N)C[C@H]12
The following applies: Shouchella clausii; NR. The source holds these as a separate data set.

B1: Beta-lactamase (Bacillus clausii), A8RR46 (protein)
chain: MKRSFFMLKTKITSSILVGACLLIGCSNGNEQPVSNEPEPEESVETGEAVFKALEEEYAARLGVFALDTGTGQTVSYRSDERFTYASAHKPLAVAVLLQQKSIEELEQLITYSADDLVNYNPITENHVETGMTLRELSDASIRYSDNTAANFIFDEIGGPEGFKEGLRAIGDTVTEPERIEPELNHVEPGEIQDTSTPEALAKSLQEFALGEALPADKQELLIDWLIGNTTGDALIRAGVPEGWEVGDKTGAGSYGTRNDIAILWPPEKEPIILAVLSSKDEKDAEYDDELIAKATEEVINLLAQTE
For orientation: kcat/Km means the second-order rate constant that governs catalysis at low substrate concentration. Usually Km stands for the substrate concentration at which the rate is half of its maximum. By kcat is commonly meant the number of substrate molecules converted per active site and unit of time at saturation. On to B1, for which the kcat/Km in data set [1] is 0.1 µM⁻¹ s⁻¹. In data set [2], the Michaelis constant (Km) came to 35 µM and the catalytic constant (kcat) is 0.06 s⁻¹.

Values taken from ChEMBL document CHEMBL1137660, “Molecular and biochemical characterization of the chromosome-encoded class A beta-lactamase BCL-1 from Bacillus clausii” (Antimicrob Agents Chemother, 2007).
